This note sets out measurements from article PMC3081289.

For assay [1], the target named is Vascular Endothelial Growth Factor (VEGF), receptor binding domain, VEGF_(8–109) (Homo sapiens). The assay can be described thus: SPR; BIAcore 3000; VEGF_(8–109) or HER2 ECD immobilised on CM5 chips; serial dilutions of Fab in PBS with 0.05% Tween20 injected at 30 µl/min; 30°C; 1:1 Langmuir fit; KD from the ratio of kon and koff.
Assay [2] has the same target. Nature of the assay: ITC; VP-ITC; Fab (100–220 µM) titrated into antigen (10–22 µM); phosphate-buffered saline pH 7.4; 30°C. A general note: In ITC the heat of successive injections is recorded.
The target is the same in assay [3]. Nature of the assay: ITC; VP-ITC; Fab titrated into antigen; 10 mM Tris-HCl pH 7.5; 30°C.
Assay [4] addresses Vascular Endothelial Growth Factor (VEGF), receptor binding domain, VEGF_(8–109). The assay can be described thus: SPR. Particulars: 30°C; Fab over immobilized antigen.

Broadly, the Kd is the free concentration of one partner at which half of the binding sites on the other are occupied at equilibrium, for simple one-to-one binding. In the case of “bH1-44 Fab (affinity-improved variant of bH1)”, the Kd in assay [1] was found to be 2 nM. Moreover, in assay [2], the dH (ΔHPBS) is -7.1 kcal/mol and the dH corrected for protonation (ΔH^CORR) is -7.1 kcal/mol. The substance also yielded a dH (ΔH (Tris)) in assay [3] of -8 kcal/mol.

By kon is commonly meant a measure of how fast the partners come together. High values mean fast association, low ones slow association. “bH1-44 Fab (affinity-improved variant of bH1) HC:R50A; HC:R58A”: in assay [4], the kon was 35 10^4 M-1s-1.
